For 24 molecules, binding signal results are on record in article PMC7723054.

The other results are listed elsewhere or left out.

T1: LIN28A (human?, UniProt Q9H9Z2 1-209)
T1 sequence: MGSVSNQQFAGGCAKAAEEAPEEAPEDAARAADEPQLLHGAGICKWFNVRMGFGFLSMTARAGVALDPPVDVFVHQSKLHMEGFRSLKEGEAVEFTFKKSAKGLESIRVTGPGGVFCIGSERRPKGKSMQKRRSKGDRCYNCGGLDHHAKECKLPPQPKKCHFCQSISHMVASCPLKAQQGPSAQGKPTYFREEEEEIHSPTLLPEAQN

T2: CIRBP (Homo sapiens, UniProt Q14011 1-172)
T2 sequence: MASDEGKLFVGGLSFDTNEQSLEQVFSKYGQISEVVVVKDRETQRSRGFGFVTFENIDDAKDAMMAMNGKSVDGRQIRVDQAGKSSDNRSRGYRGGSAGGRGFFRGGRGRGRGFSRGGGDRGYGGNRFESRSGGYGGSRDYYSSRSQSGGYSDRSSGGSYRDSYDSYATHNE

T3: DHX36 (Homo sapiens, UniProt Q9H2U1 1-1008)
T3 sequence: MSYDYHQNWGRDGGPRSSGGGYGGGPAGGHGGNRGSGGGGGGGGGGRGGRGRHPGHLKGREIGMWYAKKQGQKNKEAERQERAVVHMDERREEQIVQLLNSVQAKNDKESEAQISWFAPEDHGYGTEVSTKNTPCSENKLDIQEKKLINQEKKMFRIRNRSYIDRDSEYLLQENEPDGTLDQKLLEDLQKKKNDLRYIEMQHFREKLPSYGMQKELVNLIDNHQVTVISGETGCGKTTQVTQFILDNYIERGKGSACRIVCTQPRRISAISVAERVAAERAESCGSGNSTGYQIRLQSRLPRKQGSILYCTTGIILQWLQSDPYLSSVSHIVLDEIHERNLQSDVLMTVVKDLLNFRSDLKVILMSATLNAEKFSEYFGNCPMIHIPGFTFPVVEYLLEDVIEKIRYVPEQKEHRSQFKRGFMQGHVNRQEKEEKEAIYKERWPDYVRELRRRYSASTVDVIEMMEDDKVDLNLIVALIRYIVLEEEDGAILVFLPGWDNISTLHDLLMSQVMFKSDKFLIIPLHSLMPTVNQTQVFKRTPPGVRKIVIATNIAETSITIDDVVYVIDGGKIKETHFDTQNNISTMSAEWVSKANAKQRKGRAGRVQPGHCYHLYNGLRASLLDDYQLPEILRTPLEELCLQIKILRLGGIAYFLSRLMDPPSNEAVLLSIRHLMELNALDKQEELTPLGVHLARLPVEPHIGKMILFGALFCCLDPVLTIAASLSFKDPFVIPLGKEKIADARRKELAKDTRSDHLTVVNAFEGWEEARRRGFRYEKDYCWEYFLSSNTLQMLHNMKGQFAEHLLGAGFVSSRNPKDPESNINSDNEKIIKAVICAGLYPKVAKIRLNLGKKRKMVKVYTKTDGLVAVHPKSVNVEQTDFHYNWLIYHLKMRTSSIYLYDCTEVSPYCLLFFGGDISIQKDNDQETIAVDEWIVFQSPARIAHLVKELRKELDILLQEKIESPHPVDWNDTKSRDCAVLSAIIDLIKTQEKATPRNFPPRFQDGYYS

B1: hsa-mir-7159 (structured_RNA)
RNA: GGGAACAGACGGGAACGCAAUGGAUAUUGGUGUACGAAGUUUCAGCGGAUGGCCAGGGAAGUAUGCCGGGCCUUGGCAUUUCGCUGAAGCUUCGUGCAC
B2: hsa-mir-30e (structured_RNA)
RNA: GGGAAAGUUAUCGUCCGGCUCGGUUCUAGGUGUACGAAGUUUCAGCGAAGCUGUAAGGUGUUCAGAGGAGCUUUGCUGAAGCUUCGUGCAC
B3: NEAT1_ParasoR_ID27 (structured_RNA)
RNA: GGGAGGCUUUACGUAGGGUGGACAGACCGGUGUACGAAGUUUCAGCUCUGAAUCUCCUAUCCAAUACAAAAACUAGGACAAUACAGAGCUGAAGCUUCGUGCAC
B4: hsa-mir-204 (structured_RNA)
RNA: GGGAGCCGCGGGGAUUUAACUUGUCAUCGGUGUACGAAGUUUCAGCAUGCCUGAGAAUAUAUGAAGGAGGCUGCUGAAGCUUCGUGCAC
B5: G4_(UGGGGU)8 (structured_RNA)
RNA: GGGAAGUGCGGCUAAAUGUUACCGACACGGUGUACGAAGUUUCAGCUGGGGUUGGGGUUGGGGUUGGGGUUGGGGUUGGGGUUGGGGUUGGGGUGCUGAAGCUUCGUGCAC
B6: hsa-mir-4712 (structured_RNA)
RNA: GGGAGAUCAUUUGUUCAUUCGCCGCCCCGGUGUACGAAGUUUCAGCCAUUUCCUUCAUGAUUAGGAAUACUACUUUGAAAUGGCUGAAGCUUCGUGCAC
B7: hsa-mir-4284 (structured_RNA)
RNA: GGGAUCACAGCCUCGGAAGCUAUACGUAGGUGUACGAAGUUUCAGCAUCAAAGUGGGGACUCAUGGGGAGAGGCUGAAGCUUCGUGCAC
B8: hsa-mir-4699 (structured_RNA)
RNA: GGGACAAGACGCAGAGUAUUGUAAGAUUGGUGUACGAAGUUUCAGCAGUUCCUGAUUAAGAAAUGGAAUUGCUGAAGCUUCGUGCAC
B9: hsa-mir-6816 (structured_RNA)
RNA: GGGAGAAAUAGGGGCCACCAGGCUCAAUGGUGUACGAAGUUUCAGCCUGCAGGGACUGUGACACUGAAGCUGAAGCUUCGUGCAC
B10: hsa-mir-4257 (structured_RNA)
RNA: GGGAGACCGUAUACGAUUUUGGCUGAUGGGUGUACGAAGUUUCAGCUUGGGGAGGAGCUAAGAAGCCCCUACAGGGCCCAGGCUGAAGCUUCGUGCAC
B11: hsa-mir-4737 (structured_RNA)
RNA: GGGACGAGUGGCAUUCUUUACGUCGCCCGGUGUACGAAGUUUCAGCAGUGCCUCACAGCCGCACAGGACCGAGGAUGCUGCUGAAGCUUCGUGCAC
B12: hsa-mir-3689c (structured_RNA)
RNA: GGGAACGAGGCUGUUAACAUACUGGCUUGGUGUACGAAGUUUCAGCCUGGGAGGUGUGAUAUCGUGGUUCCUGGGCUGAAGCUUCGUGCAC
B13: r(CUG)16:28 (structured_RNA)
RNA: GGGACGCCACGUGCGCUUACAAUAAUAGGGUGUACGAAGUUUCAGCCUGCUGCUGCUGCUGCUGCUGCUGCUGCUGCUGCUGCUGCUGCUGCUGGCUGAAGCUUCGUGCAC
B14: hsa-mir-4524b (structured_RNA)
RNA: GGGAGACUAUUAGCUCGGGCAUUUAAGCGGUGUACGAAGUUUCAGCUCUCAAAAUAAUUCUGCAGUGAGAGCUGAAGCUUCGUGCAC
B15: hsa-let-7b (structured_RNA)
RNA: GGGAGUUUGAAAUUGAUCGCACCAGGCCGGUGUACGAAGUUUCAGCGUGGUUUCAGGGCAGUGAUGUUGCCCCUCGGAAGAUAACUAUGCUGAAGCUUCGUGCAC
B16: hsa-mir-598 (structured_RNA)
RNA: GGGAAAGGCACAGGUCUGAUUGCGAUGGGGUGUACGAAGUUUCAGCGUGAGCUGGAAAUGGGGUGCUACGCUGAAGCUUCGUGCAC
B17: hsa-mir-6855 (structured_RNA)
RNA: GGGAGGGAUUCAGACCGGAUUCCAUACGGGUGUACGAAGUUUCAGCGACAUUGCCAGAGGAUGGGCAGCAGACGCUGAAGCUUCGUGCAC
B18: PARIS_ID31 (structured_RNA)
RNA: GGGAAAUAUUUAUCAGGAGUGAGGCGCAGGUGUACGAAGUUUCAGCUGCUCUGGCUCUUGGCAGCUGAAGCUUCGUGCAC
B19: hsa-mir-4492 (structured_RNA)
RNA: GGGAAAUGGGCAUACGCUCACGGUUAUUGGUGUACGAAGUUUCAGCCCCCGCGCGCGGACAGACACACGGACAAGUCCCGCCAGGGGGCUGAAGCUUCGUGCAC
B20: hsa-mir-3137 (structured_RNA)
RNA: GGGAACAGGGUUGAAACGAACCCGGUUUGGUGUACGAAGUUUCAGCGGGUGUAUGGUAUAGGGGUAGCCUGCUGAAGCUUCGUGCAC
B21: hsa-mir-4433a (structured_RNA)
RNA: GGGAAUGAGGAGAUUGGCCGGCAGGAAGGGUGUACGAAGUUUCAGCCUGUUUCUGGUGAAAUAUUCAAACAGGCUGAAGCUUCGUGCAC
B22: hsa-mir-196a-1 (structured_RNA)
RNA: GGGACCAUUGCGGGAUGUCUGAUGGUCUGGUGUACGAAGUUUCAGCGGGCCUGGGUUUCUGAACACGCUGAAGCUUCGUGCAC
B23: hsa-mir-3193 (structured_RNA)
RNA: GGGCAACGCUCCGACUGAGCAUAGUGUAGGUGUACGAAGUUUCAGCAGUGGACGAGUCUCAUUAGCUGAAGCUUCGUGCAC
B24: hsa-mir-7977 (structured_RNA)
RNA: GGGAACCCGAUCGACAGAAGCGUUACAUGGUGUACGAAGUUUCAGCACCAAAAAUGAUAUGGGUGCUGAAGCUUCGUGCAC

In the first assay the target is T1, LIN28A. In words: FOREST: bead pull-down of RNA structure library v1, barcode microarray; U1A/LIN28A: 20 mM HEPES pH 7.5, 80 mM KCl, 20 mM NaCl, 10% glycerol, 2 mM DTT, 0.1 ug/uL BSA, 4 C; BG4/CIRBP/DHX36: 10 mM Tris-HCl pH 7.5, 100 mM KCl (or LiCl),; high values mean tight binding.
B1 gave a binding signal of 2.08 z-score.

Molecule B2 had a binding signal of 2.34 z-score.

The molecule B3 registered a binding signal of -0.584 ± 0.701 z-score.

With B4, the binding signal was 2.45 z-score.

The molecule B5 came in with a binding signal of 1.91 z-score.

B6 registered a binding signal of 0.292 z-score.

B7 yielded a binding signal of 1.09 z-score.

B8 returned a binding signal of 2.04 z-score.

As to B9, the binding signal stood at 0.271 z-score.

On to B10, for which the binding signal was found to be 1.93 z-score.

Turning to B11, the binding signal is -0.255 z-score.

Consider B12, for which the binding signal is 2.46 z-score.

Consider B13, for which the binding signal was found to be 0.144 z-score.

On to B14, for which the binding signal turned out to be 2.43 z-score.

B15 had a binding signal of 2.82 z-score.

B16 showed a binding signal of 2.35 z-score.

Molecule B17 showed a binding signal of 2.22 z-score.

B18 showed a binding signal of 2.1 z-score.

For B19, the binding signal is -0.616 z-score.

With B20, the binding signal came to 2.4 z-score.

Turning to B21, the binding signal worked out at 2.18 z-score.

With B22, the binding signal was found to be 0.216 z-score.

Consider B23, for which the binding signal is 0.464 z-score.

Take B24: the binding signal was 1.96 z-score.

Another assay addresses T2, CIRBP. The assay is described as above.
B1: the binding signal was determined as 0.812 z-score.

With B2, the binding signal worked out at 2.29 z-score.

In turn, B3 came in with a binding signal of 0.256 ± 0.601 z-score.

For B4, the binding signal was found to be 1.02 z-score.

Molecule B5 yielded a binding signal of 5.75 z-score.

In turn, B6 had a binding signal of -0.2 z-score.

As for B7, the binding signal is 1.18 z-score.

The molecule B8 registered a binding signal of 1.31 z-score.

With B9, the binding signal is -0.833 z-score.

Molecule B10 returned a binding signal of 0.919 z-score.

B11 came in with a binding signal of -0.221 z-score.

The molecule B12 gave a binding signal of -0.227 z-score.

On to B13, for which the binding signal was -1.45 z-score.

The molecule B14 returned a binding signal of 0.822 z-score.

As to B15, the binding signal was -0.191 z-score.

Turning to B16, the binding signal turned out to be 0.281 z-score.

As for B18, the binding signal was found to be 2.32 z-score.

B19 gave a binding signal of -1.16 z-score.

As to B20, the binding signal is 0.445 z-score.

As for B21, the binding signal is 1.37 z-score.

The molecule B22 registered a binding signal of -0.117 z-score.

In turn, B23 gave a binding signal of 0.108 z-score.

Turning to B24, the binding signal was found to be 0.469 z-score.

In the next assay the target is T3, DHX36. Described as above.
B1: the binding signal is 0.817 z-score.

The molecule B2 showed a binding signal of 0.262 z-score.

B3: the binding signal amounted to 0.0826 ± 0.568 z-score.

B4 displayed a binding signal of 0.913 z-score.

Molecule B5 yielded a binding signal of 7.41 z-score.

For the molecule B6, the binding signal is -0.165 z-score.

B7 gave a binding signal of 3.9 z-score.

In the case of B8, the binding signal is -0.00178 z-score.

For B9, the binding signal was 0.0208 z-score.

As for B10, the binding signal is 0.756 z-score.

The molecule B11 returned a binding signal of -0.0209 z-score.

B12 yielded a binding signal of 0.532 z-score.

In turn, B13 gave a binding signal of -0.277 z-score.

In turn, B14 gave a binding signal of 0.255 z-score.

The molecule B15 came in with a binding signal of 0.583 z-score.

Take B16: the binding signal came out at 0.749 z-score.

For the molecule B17, the binding signal was -0.0992 z-score.

For the molecule B18, the binding signal came out at 0.916 z-score.

Take B19: the binding signal was -0.0067 z-score.

With B20, the binding signal amounted to 2.1 z-score.

B21 came in with a binding signal of 0.327 z-score.

The molecule B22 gave a binding signal of -0.886 z-score.

Consider B23, for which the binding signal stood at 1.26 z-score.

Consider B24, for which the binding signal is -0.225 z-score.

The target in a further assay is U1A (Homo sapiens, UniProt P09012). The assay is described as above.
B3 yielded a binding signal of 1.32 ± 0.383 z-score.

Molecule B5 showed a binding signal of 1.59 z-score.

Molecule B6 displayed a binding signal of 1.59 z-score.

For the molecule B7, the binding signal stood at 1.56 z-score.

With B9, the binding signal was found to be 1.57 z-score.

In the case of B11, the binding signal was determined as 1.56 z-score.

Molecule B13 had a binding signal of 1.57 z-score.

On to B19, for which the binding signal amounted to 1.58 z-score.

B22 came in with a binding signal of 1.57 z-score.

Regarding B23, the binding signal came to 1.58 z-score.
